{"source": "paper PMC8879737", "key": {"[1]": {"molecular_target": "ChromePure human IgG Fc (human)", "experiment": "SPR; Biacore 2000; human IgG Fc and human, rabbit, mouse, guinea pig whole IgG amine coupled to CM5 chips (854, 1348, 1094, 857, 1143 RU); gE monomers and gE/gI heterodimers at 750 μg/mL (Bac gE-1 t411 490 μg/mL) flowed at 30 μL/min in 0.01 M HEPES pH 7.4, 0.15 M NaCl, 0.005% P20; one concentration, RU at the end of association and of dissociation"}, "[2]": {"molecular_target": "ChromePure human IgG Fc (human)", "experiment": "SPR; Biacore 2000; human IgG Fc and human, rabbit, mouse, guinea pig whole IgG amine coupled to CM5 chips (854, 1348, 1094, 857, 1143 RU); gE monomers and gE/gI heterodimers at 750 μg/mL (Bac gE-1 t411 490 μg/mL) flowed at 30 μL/min in 0.01 M HEPES pH 7.4, 0.15 M NaCl, 0.005% P20; one concentration, RU at the end of association and of dissociation", "remark": "listed apart in the source"}}, "note": "Values joined by “and” are separate entries in the source; they are usually repeats but may differ in a detail not shown here. Identical values can stand only once. Like-named read-outs stand apart in the source and are kept apart here."}
{"substance": "gE-2 t417/gI-2 t262 (complex)", "values": [{"measurement": "RU post association", "setting": "[1]", "result": 41, "unit": "RU"}, {"measurement": "RU post dissociation", "setting": "[1]", "result": 0.8, "unit": "RU"}, {"measurement": "RU post association", "setting": "[2]", "result": "43 RU and 98 RU"}]}
